Data published in patent US20250318525A1, “COMPOSITIONS TO CONTROL THE RELEASE RATES OF CHEMICAL PESTICIDES” (priority 2020, published 2025).

Structure (SMILES)	water solubility, comparison in words (2,4D and its metal pairings, FIG. 36)	solubility (as listed in FIG. 36) [µg/mL]
O=C([O-])COc1ccc(Cl)cc1Cl.[Na+] [Na(2,4D)]	significantly higher water solubility than neutral 2,4D	
O=C(O)COc1ccc(Cl)cc1Cl [Ca(2,4D)2]		3390 (≈ 15.3 mM)

Values after ≈ are worked out from the molar mass of the structure shown.
